In one test the target is σ1 receptor (Cavia porcellus, UniProt Q60492). Nature of the test: Competition binding assay at σ1 receptors with [3H]. The settings on record: read-out: Ki (nM) σ1; [3H](+)-PTZ, guinea pig brain membranes; mean ± SEM; n = 4.
A further test deals with σ2 receptor (Cavia porcellus, UniProt H0V073). In words: Competition binding assay at σ2 receptors with [3H]DTG / 500 nM. The note with it: ratio of Ki values. Also on record: species or system guinea pig.

Amino acid sequences for entries named in this document (tags omitted). Residues count along the entry.
UniProt Q60492, whole entry: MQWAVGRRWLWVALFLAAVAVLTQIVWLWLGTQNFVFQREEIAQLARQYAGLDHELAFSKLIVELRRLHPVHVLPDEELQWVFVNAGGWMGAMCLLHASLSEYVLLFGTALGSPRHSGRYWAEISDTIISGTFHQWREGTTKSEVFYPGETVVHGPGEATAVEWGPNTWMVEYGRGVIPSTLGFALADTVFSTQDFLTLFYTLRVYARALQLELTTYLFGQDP
UniProt H0V073, 1-176: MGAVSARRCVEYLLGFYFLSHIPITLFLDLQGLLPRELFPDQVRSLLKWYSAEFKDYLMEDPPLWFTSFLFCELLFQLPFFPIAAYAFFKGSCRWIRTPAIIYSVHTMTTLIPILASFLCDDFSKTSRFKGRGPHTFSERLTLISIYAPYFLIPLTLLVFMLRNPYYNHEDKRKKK

By Ki is commonly meant the equilibrium dissociation constant of an inhibitor or competing ligand from its target.

With “5-bromo-N-(4-((3,4-dimethoxyphenethyl)(methyl)amino)butyl)-2,3-dimethoxybenzamide [Compound 9]”, at σ1 receptor, the Ki was found to be 583 ± 28 nM. The “Selectivity Ki σ1 / Ki σ2” value at σ2 receptor amounted to 0.27.
